Patent US20200010482A1, “INHIBITORS OF BETA SECRETASE” (Janssen Pharmaceutica NV, priority 2017, published 2020)

By UniProt entry, the sequences of proteins in these tests, tags left out. Residues count along the entry.
UniProt Q9Y5Z0, 63-518 limits assumed: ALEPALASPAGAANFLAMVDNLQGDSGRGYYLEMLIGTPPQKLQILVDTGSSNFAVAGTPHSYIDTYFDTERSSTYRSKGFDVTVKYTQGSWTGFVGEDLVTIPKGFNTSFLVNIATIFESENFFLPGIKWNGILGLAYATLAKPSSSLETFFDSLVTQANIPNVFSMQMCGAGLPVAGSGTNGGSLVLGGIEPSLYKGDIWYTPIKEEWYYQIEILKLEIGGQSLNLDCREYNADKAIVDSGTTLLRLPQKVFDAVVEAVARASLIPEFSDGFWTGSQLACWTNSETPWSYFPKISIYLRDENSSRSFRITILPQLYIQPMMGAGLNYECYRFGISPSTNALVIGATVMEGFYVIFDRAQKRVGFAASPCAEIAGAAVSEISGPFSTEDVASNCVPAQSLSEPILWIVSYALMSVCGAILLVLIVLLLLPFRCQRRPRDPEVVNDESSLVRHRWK
UniProt P56817, 46-501 limits assumed: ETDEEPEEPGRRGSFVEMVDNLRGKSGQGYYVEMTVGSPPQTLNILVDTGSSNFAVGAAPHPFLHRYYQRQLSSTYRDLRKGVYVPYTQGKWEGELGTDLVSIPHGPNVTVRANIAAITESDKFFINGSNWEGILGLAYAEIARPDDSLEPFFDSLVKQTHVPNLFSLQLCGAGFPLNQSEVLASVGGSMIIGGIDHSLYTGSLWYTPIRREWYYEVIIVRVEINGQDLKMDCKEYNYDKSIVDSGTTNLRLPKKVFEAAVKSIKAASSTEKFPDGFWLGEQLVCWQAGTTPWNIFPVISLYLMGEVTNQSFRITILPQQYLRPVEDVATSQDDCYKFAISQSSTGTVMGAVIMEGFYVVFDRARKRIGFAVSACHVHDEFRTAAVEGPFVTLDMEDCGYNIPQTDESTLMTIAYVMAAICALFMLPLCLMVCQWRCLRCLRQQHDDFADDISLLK

What was measured:
[1] = biological target: BACE2 (Homo sapiens, UniProt Q9Y5Z0); experiment: BACE2 biochemical FRET based assay; conditions: recombinant BACE2 0.4 μg/ml, 10 μM substrate, 450 min, pH 5.0
Excerpt: (§1) This assay is a Fluorescence Resonance Energy Transfer Assay (FRET) based assay. The substrate for this assay contains the ‘Swedish’ Lys-Met/Asn-Leu mutation of the amyloid precursor protein (APP) beta-secretase cleavage site. This substrate also contains two fluorophores: (7-methoxycoumarin-4-yl) acetic acid (Mca) is a fluorescent donor with excitation wavelength at 320 nm and emission at 405 nm and 2,4-Dinitrophenyl (Dnp) is a proprietary quencher acceptor. […] Upon cleavage by the beta-secretase, the fluorophore Mca is separated from the quenching group Dnp, restoring the full fluorescence yield of the donor. The increase in fluorescence is linearly related to the rate of proteolysis.
Briefly in a 384-well format recombinant BACE2 protein in a final concentration of 0.4 μg/ml is incubated for 450 minutes at room temperature with 10 μM substrate in incubation buffer (50 mM Citrate buffer pH 5.0, 0.05% PEG, no DMSO) in the absence or presence of compound. Next the amount of proteolysis is directly measured by fluorescence measurement at T=0 and T=450 (excitation at 320 nm and emission at 405 nm). Results are expressed in RFU (Relative Fluorescence Units), as difference between T450 and TO.
(§2) A best-fit curve is fitted by a minimum sum of squares method to the plot of % Controlmin versus compound concentration. From this an IC50 value (inhibitory concentration causing 50% inhibition of activity) can be obtained. • LC=Median of the low control values=Low control: Reaction without enzyme • HC=Median of the High control values=High Control: Reaction with enzyme
(§3) % Effect=100−[(sample−LC)/(HC−LC)*100]
(§4) % Control=(sample/HC)*100
(§5) % Controlmin=(sample−LC)/(HC−LC)*100

[2] = tested on: Abeta 1-42 produced and secreted by SKNBE2 cells expressing hAPP695; experiment: Cellular αLisa assay in SKNBE2 cells, Abeta 1-42; conditions: SKNBE2 cells expressing hAPP695, 18 hours incubation
Description: In two αLisa assays the levels of Abeta total and Abeta 1-42 produced and secreted into the medium of human neuroblastoma SKNBE2 cells are quantified. The assay is based on the human neuroblastoma SKNBE2 expressing the wild type Amyloid Precursor Protein (hAPP695). The compounds are diluted and added to these cells, incubated for 18 hours and then measurements of Abeta 1-42 and Abeta total are taken. Abeta total and Abeta 1-42 are measured by sandwich αLisa. αLisa is a sandwich assay using biotinylated antibody AbN/25 attached to streptavidin coated beads and antibody Ab4G8 or cAb42/26 conjugated acceptor beads for the detection of Abeta total and Abeta 1-42 respectively. In the presence of Abeta total or Abeta 1-42, the beads come into close proximity. The excitation of the donor beads provokes the release of singlet oxygen molecules that trigger a cascade of energy transfer in the acceptor beads, resulting in light emission. Light emission is measured after 1 hour incubation (excitation at […] and emission at 615 nm).
as §2, with “cells preincubated” for “Reaction”, “compound, without biotinylated Ab in the αLisa” for “enzyme”, “cells preincubated without compound” for “Reaction with enzyme”
as §3, §4, §5

[3] = biological target: BACE1 (Homo sapiens, UniProt P56817); experiment: BACE1 biochemical FRET based assay; conditions: recombinant BACE1 0.04 μg/ml, 20 μM substrate, 450 min, pH 5.0
Excerpt: as §1, with “this assay is an APP derived 13 amino acids peptide that contains the” for “this assay contains the”, “cleavage by BACE1, the fluorophore” for “cleavage by the beta-secretase, the fluorophore”
Briefly in a 384-well format recombinant BACE1 protein in a final concentration of 0.04 μg/ml is incubated for 450 minutes at room temperature with 20 μM substrate in incubation buffer (50 mM Citrate buffer pH 5.0, 0.05% PEG) in the presence of compound or DMSO. Next the amount of proteolysis is directly measured by fluorescence measurement (excitation at 320 nm and emission at 405 nm) at different incubation times (0, 30, 60, 90, 120 and 450 min). For every experiment a time curve (every 30 min between 0 min and 120 min) is used to determine the time where we find the lowest basal signal of the high control. The signal at this time (Tx) is used to subtract from the signal at 450 min. Results are expressed in RFU, as difference between T450 and Tx.
as §2, §3, §4, §5

[4] = biological target: β-secretase I (BACE1) (Homo sapiens, UniProt P56817); experiment: Biochemical assay, automated (CyclOps), BACE1; conditions: automated CyclOps bioassay
Description: (§6) Unless otherwise indicated all biochemicals were purchased from Sigma-Aldrich Chemical Company, Poole, Dorset, U.K. and non-aqueous solvents, of analytical or higher grade, were purchased from ThermoFisher Scientific, Loughborough, U.K. MilliQ water (Elix 5 & MilliQ Gradient; Merck Millipore) was used as the base aqueous solvent to make up the biological buffers. Base assay buffer was prepared by adding a 50 mM solution of citric acid (1.00244; Merck Biosciences) to stirring solution of 50 mM trisodium citrate (1.06448; Merck Biosciences) until a final pH of 5.0 was achieved. […] All assays were routinely carried out in 384-well assay plates (Costar 4514; Corning Life Sciences) and incubated at 37±1° C. for 60 min. prior to reading the endpoint fluorescence intensity. The (7-methoxyl coumarin-4-yl)acetic acid based substrate β-secretase substrate VI (M2465; Bachem) was prepared as a 1 mM stock in 100% DMSO (D/4121/PB08; ThermoFisher). Assay buffer was prepared by adding DMSO to base buffer to a final concentration of 1% (vol./vol.). β-secretase I (18.64 μM; “BACE1”) and β-secretase II (4.65 μM; “BACE2”) were obtained from Janssen Pharmaceutica, Beerse, Belgium and were stored as frozen aliquots (˜20 μl) and thawed as required.
(§7) Typically 12.5 μl of assay buffer was dispensed to rows B to P of the assay plate. To row A was added 18.75 μl of test compound diluted appropriately in assay buffer. A 6.25 μl aliquot of sample was transferred from row A to row B and the sample mixed three times by pipette. The process was repeated down the plate and 6.25 μl of solution discarded at row N post-mix. Rows O and P were designated as the positive and negative controls. To row P was added 6.25 μl base buffer. To rows A to O was added 6.25 μl enzyme (freshly prepared 40 nM BACE1 or 40 nM BACE2) diluted in base buffer. To initiate the assay 6.25 μl of freshly prepared 80 μM substrate, made up by diluting the 1 mM in 100% DMSO solution into HPLC grade water (Optima W6-212; ThermoFisher), was added to all the wells. The assay plate was covered and incubated at 37±1° C. for 60 min. The fluorescence intensity of the wells was read at 360/405 nm (excitation/emission) utilising a nine reads per well protocol (50 ms integration; density of 3, 0.25 mm spacing; SpectraMAX Paradigm plate reader; TUNE cartridge; SoftMax Pro v 6.3 software; Molecular Devices UK Ltd., Wokingham, Berkshire, UK) and outputting the median value of the nine reads as a text file. Data analysis was carried out using Prism software v 6.3 (GraphPad Inc., San Diego, Calif., USA) using the non-linear regression analysis models supplied by the vendor. For IC50 determinations the four parameter logistic variable slope model was used to fit the raw fluorescence intensity data with the ‘bottom’ fixed to the negative control.
(§8) The CyclOps bioassay module consisted of a fraction collection station, a reagent station, liquid handling robotics, plate store and an integrated plate reader (SpectraMAX Paradigm, TUNE cartridge, SoftMax Pro v 6.3; Molecular Devices). The fraction collection station composed of a 384 well collection plate (P-384-240SQ-C; Axygen, Union City, Calif., USA) mounted on a H-portal carriage (Festo AG & Co. KG, Esslingen, Germany), a syringe drive and a two-way six port injection valve fitted with a 200 μl loop (VICI AG International, Schenkon Switzerland). The output of the injection valve was addressable to all the positions of a 384 well collection plate. The reagent station consisted of hydraulically cooled (10-12° C.) aluminium segments; each manufactured to house a SBS microtiter plate footprint. Independent addressable reagent stations were housed within these sections. Where required, custom aluminium housings were used to accommodate standard laboratory plastic ware (e.g. Eppendorf tubes, Falcon tubes, etc.). As and when required the reagent reservoirs were covered and the lids contained holes through which the Teflon-coated probe could access solutions. […]

[5] = biological target: β-secretase II (BACE2) (Homo sapiens, UniProt Q9Y5Z0); experiment: Biochemical assay, automated (CyclOps), BACE2; conditions: automated CyclOps bioassay
Description: as §6, §7, §8

| Compound | BIOCHEMICAL FRET BASED ASSAY pIC50 [1] | CELLULAR αLISA ASSAY IN SKNBE2 CELLS ABETA 42 PIC50 [2] | BIOCHEMICAL FRET BASED ASSAY pIC50 [3] | AUTOMATED ASSAY BACE1 pIC50 [4] | AUTOMATED ASSAY BACE2 pIC50 [5] |
| --- | --- | --- | --- | --- | --- |
| COCc1cnc(OC)c2c1C[C@H]1CSC(N)=N[C@@]1(c1ccc(F)cc1F)C2 | 7.55 | 8.6 | 7.91 |  |  |
| COc1ncc(-c2ccncc2C#N)c2c1C[C@]1(c3ccc(F)cc3F)N=C(N)SC[C@@H]1C2 | 6.78 | 7.76 | 7.06 |  |  |
| COc1ncc(CO)c2c1C[C@]1(c3ccc(F)cc3F)N=C(N)SC[C@@H]1C2 | 6.7 | 8 | 7.43 |  |  |
| COc1ncc(Cl)c2c1C[C@]1(c3ccc(F)cc3F)N=C(N)SC[C@@H]1C2 | 7.32 | 7.35 | 7.57 |  |  |
| COc1ccc(-c2cnc(OC)c3c2C[C@H]2CSC(N)=N[C@@]2(c2ccc(F)cc2F)C3)cn1 | 7.86 | 8.46 | 8.16 |  |  |
| COc1ncc(-c2cccc(O)c2)c2c1C[C@]1(c3ccc(F)cc3F)N=C(N)SC[C@@H]1C2 | 8.6 | 8.84 | 9.01 |  |  |
| COc1ncc(OCc2ccccc2)c2c1C[C@]1(c3ccc(F)cc3F)N=C(N)SC[C@@H]1C2 | 7.91 | 7.6 | 8.06 |  |  |
| COc1ncc(-c2cnccc2C)c2c1C[C@]1(c3ccc(F)cc3F)N=C(N)OC[C@@H]1C2 (relative stereo) | 5.21 | 7.79 | 6.85 |  |  |
| COc1ncc(-c2ccncc2)c2c1CC1(c3ccc(F)cc3F)N=C(N)SCC1C2 (stereo not drawn) | 7.91 | 8.74 | 8.08 |  |  |
| COc1cnccc1-c1cnc(OC)c2c1C[C@H]1CSC(N)=N[C@@]1(c1ccc(F)cc1F)C2 | 6.34 | 7.83 | 7.27 |  |  |
| COc1ncc(-c2c(C)nn(C)c2C)c2c1C[C@]1(c3ccc(F)cc3F)N=C(N)SC[C@@H]1C2 | 6.31 | 8.01 | 7.76 |  |  |
| COc1ncc(-c2ccccc2OC(C)C)c2c1C[C@]1(c3ccc(F)cc3F)N=C(N)SC[C@@H]1C2 |  |  |  | 6.15 | 5.2 |
| COc1ncc(-c2cnc3c(c2)OCCN3C)c2c1C[C@]1(c3ccc(F)cc3F)N=C(N)SC[C@@H]1C2 |  |  |  | 7.4 | 6.64 |
| COc1ncc(-c2cnc(N(C)C)cn2)c2c1C[C@]1(c3ccc(F)cc3F)N=C(N)SC[C@@H]1C2 |  |  |  | 7.27 | 6.99 |
| COc1ncc(-c2nn(C)cc2C)c2c1C[C@]1(c3ccc(F)cc3F)N=C(N)SC[C@@H]1C2 |  |  |  | 7.92 | 7.57 |
| COc1ncc(-c2cncc3ccccc23)c2c1C[C@]1(c3ccc(F)cc3F)N=C(N)SC[C@@H]1C2 |  |  |  | 7.59 | 6.81 |
| COc1ncc(-c2c(C)noc2C)c2c1C[C@]1(c3cc(OCCC(C)(C)C)ccc3F)N=C(N)SC[C@@H]1C2 |  |  |  | 6.6 | 5.49 |
| COc1ncc(-c2cnn(-c3ccccc3)c2C)c2c1C[C@]1(c3ccc(F)cc3F)N=C(N)SC[C@@H]1C2 |  |  |  | 8.52 | 8.64 |
| COc1cccc(COc2ccc(F)c([C@]34Cc5c(OC)ncc(-c6cc(OC)ccc6F)c5C[C@H]3CSC(N)=N4)c2)c1 |  |  |  | 6.24 | 6.24 |
| COc1ccc(OC)c(-c2cnc(OC)c3c2CC2CSC(N)=NC2(c2ccc(F)cc2F)C3)c1 (stereo not drawn) |  |  |  | 6.88 | 5.76 |
